The chains behind the UniProt entries cited, without tags or fusion partners. Where a name states a change or a piece, a line headed by the entry shows the natural chain unless it says otherwise.
UniProt P48775: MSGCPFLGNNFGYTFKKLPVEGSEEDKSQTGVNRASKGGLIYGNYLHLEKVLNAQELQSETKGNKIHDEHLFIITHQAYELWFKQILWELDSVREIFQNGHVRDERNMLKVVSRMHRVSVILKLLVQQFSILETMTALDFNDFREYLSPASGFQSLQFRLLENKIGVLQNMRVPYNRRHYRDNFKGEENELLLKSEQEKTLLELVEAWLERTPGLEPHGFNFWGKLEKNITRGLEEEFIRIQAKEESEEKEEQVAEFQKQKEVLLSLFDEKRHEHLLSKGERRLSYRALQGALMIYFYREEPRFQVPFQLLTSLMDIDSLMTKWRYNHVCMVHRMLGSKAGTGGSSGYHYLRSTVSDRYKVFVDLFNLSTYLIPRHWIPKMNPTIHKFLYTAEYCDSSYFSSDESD

According to ChEMBL document CHEMBL3627665, “Challenges and Opportunities in the Discovery of New Therapeutics Targeting the Kynurenine Pathway” (J Med Chem, 2015):

Biological target: Tryptophan 2,3-dioxygenase (Homo sapiens, UniProt P48775)

## Fc1ccc2c(/C=C/c3cccnc3)c[nH]c2c1
  IC50: 280 nM
